Laboratory results from ChEMBL document CHEMBL5113391, “Halogen substituents enhance oxime nucleophilicity for reactivation of cholinesterases inhibited by nerve agents” (2022).

What was measured:
[1] = Stability of compound in PBS at 1 mg/ml for 8 hrs by UHPLC analysis; details: buffer
[2] = Stability of compound in unionized water at 1 mg/ml for 8 hrs by UHPLC analysis; details: buffer
[3] = Dissociation constant, pKa of the compound at pH 4.5 to 11 by UV-vis spectrophotometric analysis
[4] = Antioxidant activity assessed as DPPH radical scavenging activity incubated for 1 hrs under dark condition by DPPH assay

SMILES | Stability [1] | Stability [2] | pKa [3] | EC50 [4] [µM]
NC(=O)c1cc[n+](CCC[n+]2cc(F)c(/C=N/O)c(F)c2)cc1.[Br-].[Br-] | Unstable | Stable | 7.26 | –
NC(=O)c1cc[n+](C/C=C/C[n+]2cc(F)c(/C=N/O)c(F)c2)cc1.[Br-].[Br-] | – | – | 7.26 | –
NC(=O)c1cc[n+](CCC[n+]2ccc(/C=N/O)c(Cl)c2)cc1.[Br-].[Br-] | Unstable | Stable | – | –
Cc1c(C)c2c(c(C)c1O)CCC(C)(C(=O)O)O2 (stereo not drawn) | – | – | – | 50
NC(=O)c1cc[n+](C/C=C/C[n+]2ccc(/C=N/O)c(F)c2)cc1.[Br-].[Br-] | – | – | 7.75 | –
NC(=O)c1cc[n+](CCC[n+]2ccc(/C=N/O)c(F)c2)cc1.[Br-].[Br-] | Unstable | Stable | 7.76 | –
NC(=O)c1cc[n+](CCCC[n+]2cc(F)c(/C=N/O)c(F)c2)cc1.[Br-].[Br-] | – | – | 7.29 | –
NC(=O)c1cc[n+](CCCC[n+]2ccc(/C=N/O)c(F)c2)cc1.[Br-].[Br-] | – | – | 7.78 | –
